Sequences of proteins named here, by UniProt entry; tags and fusion partners are left off.
UniProt Q14524, whole entry: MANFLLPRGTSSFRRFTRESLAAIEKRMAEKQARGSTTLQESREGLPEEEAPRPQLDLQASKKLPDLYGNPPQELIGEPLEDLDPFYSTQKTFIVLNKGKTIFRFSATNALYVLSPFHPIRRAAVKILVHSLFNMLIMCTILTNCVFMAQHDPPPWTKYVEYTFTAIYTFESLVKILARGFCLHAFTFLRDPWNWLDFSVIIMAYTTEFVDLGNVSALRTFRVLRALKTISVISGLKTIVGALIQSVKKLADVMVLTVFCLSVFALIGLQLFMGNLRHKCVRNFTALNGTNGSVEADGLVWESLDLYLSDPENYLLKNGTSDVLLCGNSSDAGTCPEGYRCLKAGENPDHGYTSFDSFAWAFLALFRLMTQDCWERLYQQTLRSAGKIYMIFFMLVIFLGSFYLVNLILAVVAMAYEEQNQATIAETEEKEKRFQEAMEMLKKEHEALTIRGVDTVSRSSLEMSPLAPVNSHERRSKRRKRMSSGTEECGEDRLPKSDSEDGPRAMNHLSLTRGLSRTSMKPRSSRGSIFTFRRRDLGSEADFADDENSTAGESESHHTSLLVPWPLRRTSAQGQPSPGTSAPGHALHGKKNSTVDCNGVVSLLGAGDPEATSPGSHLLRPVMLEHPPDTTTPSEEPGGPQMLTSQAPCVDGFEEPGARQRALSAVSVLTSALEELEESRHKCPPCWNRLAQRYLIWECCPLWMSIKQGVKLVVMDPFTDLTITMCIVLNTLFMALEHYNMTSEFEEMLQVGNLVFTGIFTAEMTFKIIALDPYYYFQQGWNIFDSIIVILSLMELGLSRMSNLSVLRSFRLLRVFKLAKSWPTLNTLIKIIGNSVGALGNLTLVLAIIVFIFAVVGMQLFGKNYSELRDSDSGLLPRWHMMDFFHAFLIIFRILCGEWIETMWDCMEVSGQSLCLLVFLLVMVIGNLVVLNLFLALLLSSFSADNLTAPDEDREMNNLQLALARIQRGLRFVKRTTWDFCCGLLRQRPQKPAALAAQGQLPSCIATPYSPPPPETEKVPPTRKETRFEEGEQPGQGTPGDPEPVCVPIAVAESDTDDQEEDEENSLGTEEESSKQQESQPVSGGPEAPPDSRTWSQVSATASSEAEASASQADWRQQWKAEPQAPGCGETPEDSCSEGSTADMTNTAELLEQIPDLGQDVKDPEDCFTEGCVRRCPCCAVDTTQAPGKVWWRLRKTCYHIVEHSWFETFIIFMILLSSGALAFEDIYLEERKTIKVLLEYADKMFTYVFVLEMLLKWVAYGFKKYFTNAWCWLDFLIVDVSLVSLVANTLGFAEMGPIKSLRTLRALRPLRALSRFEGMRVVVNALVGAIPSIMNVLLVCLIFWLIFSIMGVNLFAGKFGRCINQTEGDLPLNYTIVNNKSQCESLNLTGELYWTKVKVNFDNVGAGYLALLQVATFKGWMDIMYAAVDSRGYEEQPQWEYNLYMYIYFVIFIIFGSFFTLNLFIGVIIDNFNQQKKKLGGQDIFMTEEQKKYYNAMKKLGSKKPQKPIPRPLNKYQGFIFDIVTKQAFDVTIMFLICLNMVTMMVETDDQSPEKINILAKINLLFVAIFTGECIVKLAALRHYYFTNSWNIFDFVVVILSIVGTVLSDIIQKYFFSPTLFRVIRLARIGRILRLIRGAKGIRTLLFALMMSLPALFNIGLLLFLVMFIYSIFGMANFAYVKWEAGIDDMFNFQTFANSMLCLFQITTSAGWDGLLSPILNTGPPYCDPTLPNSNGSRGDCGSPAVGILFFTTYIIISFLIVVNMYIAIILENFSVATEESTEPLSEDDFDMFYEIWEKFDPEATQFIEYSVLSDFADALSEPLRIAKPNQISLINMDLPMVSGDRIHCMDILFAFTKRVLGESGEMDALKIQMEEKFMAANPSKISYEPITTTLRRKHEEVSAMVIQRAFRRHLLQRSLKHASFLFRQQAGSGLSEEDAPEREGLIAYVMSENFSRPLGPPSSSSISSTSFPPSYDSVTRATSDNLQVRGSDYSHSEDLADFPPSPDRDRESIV
UniProt Q15858, whole entry: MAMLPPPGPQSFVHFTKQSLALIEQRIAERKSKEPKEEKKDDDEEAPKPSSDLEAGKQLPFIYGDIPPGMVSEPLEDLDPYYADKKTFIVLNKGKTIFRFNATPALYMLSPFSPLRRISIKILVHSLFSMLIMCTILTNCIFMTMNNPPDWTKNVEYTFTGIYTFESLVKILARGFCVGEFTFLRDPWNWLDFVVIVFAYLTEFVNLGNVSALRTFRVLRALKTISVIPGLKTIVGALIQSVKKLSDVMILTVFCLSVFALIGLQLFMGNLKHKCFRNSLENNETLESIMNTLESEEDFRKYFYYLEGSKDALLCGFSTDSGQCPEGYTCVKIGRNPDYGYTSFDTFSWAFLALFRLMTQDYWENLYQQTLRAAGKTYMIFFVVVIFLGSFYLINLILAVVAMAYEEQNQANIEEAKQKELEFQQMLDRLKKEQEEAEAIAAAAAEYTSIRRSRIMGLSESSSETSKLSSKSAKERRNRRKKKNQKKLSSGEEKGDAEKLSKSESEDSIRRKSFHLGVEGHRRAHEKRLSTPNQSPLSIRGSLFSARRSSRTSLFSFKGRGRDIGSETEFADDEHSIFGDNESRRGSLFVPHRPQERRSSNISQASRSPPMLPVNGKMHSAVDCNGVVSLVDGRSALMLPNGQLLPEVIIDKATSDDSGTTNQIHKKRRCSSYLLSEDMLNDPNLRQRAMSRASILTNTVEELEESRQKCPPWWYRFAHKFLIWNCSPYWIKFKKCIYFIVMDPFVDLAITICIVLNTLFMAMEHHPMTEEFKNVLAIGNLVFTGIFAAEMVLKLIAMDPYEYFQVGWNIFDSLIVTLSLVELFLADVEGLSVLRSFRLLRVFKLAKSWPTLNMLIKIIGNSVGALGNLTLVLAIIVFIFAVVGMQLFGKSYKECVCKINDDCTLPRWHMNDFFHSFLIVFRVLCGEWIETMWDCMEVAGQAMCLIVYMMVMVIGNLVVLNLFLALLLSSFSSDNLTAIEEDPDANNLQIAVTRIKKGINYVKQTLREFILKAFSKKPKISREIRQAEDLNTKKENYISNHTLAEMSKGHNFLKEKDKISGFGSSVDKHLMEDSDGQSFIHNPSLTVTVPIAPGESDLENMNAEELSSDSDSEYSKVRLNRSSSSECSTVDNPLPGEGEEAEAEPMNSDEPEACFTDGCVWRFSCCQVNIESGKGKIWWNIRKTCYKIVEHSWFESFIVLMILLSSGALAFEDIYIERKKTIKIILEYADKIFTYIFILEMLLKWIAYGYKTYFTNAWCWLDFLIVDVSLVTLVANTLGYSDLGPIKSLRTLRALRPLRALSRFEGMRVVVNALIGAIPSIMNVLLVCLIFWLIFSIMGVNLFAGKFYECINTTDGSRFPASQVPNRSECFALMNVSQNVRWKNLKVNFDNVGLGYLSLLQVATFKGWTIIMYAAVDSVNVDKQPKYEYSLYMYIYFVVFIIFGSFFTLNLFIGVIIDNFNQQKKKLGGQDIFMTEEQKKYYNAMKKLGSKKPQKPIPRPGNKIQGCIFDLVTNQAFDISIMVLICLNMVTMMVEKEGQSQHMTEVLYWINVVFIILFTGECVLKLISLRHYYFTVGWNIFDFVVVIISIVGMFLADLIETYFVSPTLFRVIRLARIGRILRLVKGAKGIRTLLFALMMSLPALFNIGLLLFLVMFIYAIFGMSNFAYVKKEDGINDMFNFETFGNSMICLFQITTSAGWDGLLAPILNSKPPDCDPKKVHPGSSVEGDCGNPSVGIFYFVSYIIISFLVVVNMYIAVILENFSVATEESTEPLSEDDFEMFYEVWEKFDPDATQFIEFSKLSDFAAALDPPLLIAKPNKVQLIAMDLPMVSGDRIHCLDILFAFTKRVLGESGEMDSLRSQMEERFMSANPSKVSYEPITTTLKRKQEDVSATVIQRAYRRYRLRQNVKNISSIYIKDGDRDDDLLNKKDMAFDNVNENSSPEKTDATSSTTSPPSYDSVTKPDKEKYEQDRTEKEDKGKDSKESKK

According to patent US9273040B2 (Merck Sharp & Dohme Corp., priority 2011, dated 2016):

Key:
[1] = biological target: human Nav1.5 channels stably expressed in HEK 293 cells (Homo sapiens, UniProt Q14524); test: PatchXpress 7000 automated patch-clamp, sodium current; assay type: cell-based; settings: selectivity over Nav1.5
[2] = biological target: human Nav1.7 channels stably expressed in HEK 293 cells (Homo sapiens, UniProt Q15858); test: as above; assay type: cell-based; settings: read-out: potency for the Nav 1.7 sodium ion channel (as measured by PatchXpress), 22° C.

- IC50 [2]: 492 nM
Compound: Nc1cc2c(Cn3c(=O)oc4cc(S(=O)(=O)Nc5ncns5)ccc43)cccc2cn1
- ratio of Nav 1.5:Nav 1.7 potency, determined by PatchXpress measurement [1]: 61
